Measurements reported in ChEMBL document CHEMBL5537215, “Benzenesulfonamide decorated dihydropyrimidin(thi)ones: carbonic anhydrase profiling and antiproliferative activity” (RSC Med Chem, 2024).
Calls of active or inactive are those of the source. No cut-off for these calls is given here.

Legend:
MDA-MB-231 = experiment: Antiproliferative activity against human MDA-MB-231 cells assessed as reduction in cell growth at 300 uM incubated for 72 hrs in the presence of hypoxic condition by cytofluorimetric analysis; assay type: functional, cell-based
U-87 MG = experiment: Antiproliferative activity against human U-87MG cells assessed as reduction in cell growth at 0.1 to 1000 incubated for 72 hrs in the presence of hypoxic condition by cytofluorimetric analysis; assay type: functional, cell-based; conditions: U-87MG ATCC

SMILES | Activity (MDA-MB-231) | Activity (U-87 MG)
NC(=O)C1=C(c2ccccc2)NC(=O)NC1c1ccc(S(N)(=O)=O)cc1 (centres undefined) | inactive | inactive
NC(=O)C1=C(c2ccccc2)NC(=S)NC1c1ccc(S(N)(=O)=O)cc1 (centres undefined) | inactive | inactive
